# In patent US6218431A, “Substituted biphenyls” (Bayer Corporation, priority 1997, dated 2001):
# Amino acid sequences for entries named in this document (tags omitted). Residues count along the entry.
# UniProt P47871, 26-477: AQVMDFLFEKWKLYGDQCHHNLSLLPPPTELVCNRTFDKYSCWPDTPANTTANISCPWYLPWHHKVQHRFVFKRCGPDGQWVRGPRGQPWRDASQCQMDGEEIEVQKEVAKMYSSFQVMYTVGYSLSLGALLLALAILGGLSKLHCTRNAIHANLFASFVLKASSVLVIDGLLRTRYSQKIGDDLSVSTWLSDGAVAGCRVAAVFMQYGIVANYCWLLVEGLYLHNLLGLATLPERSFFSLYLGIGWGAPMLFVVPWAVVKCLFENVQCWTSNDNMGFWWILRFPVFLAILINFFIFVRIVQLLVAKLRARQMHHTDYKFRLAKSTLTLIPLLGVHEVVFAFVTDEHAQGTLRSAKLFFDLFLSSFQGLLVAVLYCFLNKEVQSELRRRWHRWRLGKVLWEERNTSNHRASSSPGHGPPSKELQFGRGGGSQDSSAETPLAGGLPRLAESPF
# Target: T1, glucagon receptor (Homo sapiens, UniProt P47871)
# T1 construct: expressed in transfected cells; host or cells: Chinese Hamster Ovary cells (CHO-HGR), membranes
# Assay: glucagon receptor binding assay (125I-glucagon, CHO-HGR membranes)
# Settings: 60 min at room temperature
# Method: The affinity for the glucagon receptor of compounds of the present invention is determined by the glucagon receptor binding assay. Membranes were prepared from Chinese Hamster Ovary cells expressing the glucagon receptor (CHO-HGR) by scraping the cells into hypotonic lysis buffer (10 mM Tris, pH 7.4, 2 mM EDTA, 5 mM MgCl2 and 1 mM PMSF) and subjecting the material to Polytron homogenization. Nuclei were removed by a 15-min 800×g centrifugation step conducted at 4° C. Membranes containing the receptor were collected by centrifugation at 15,000×gfor 15 min at 4° C. The membranes were washed once in lysis buffer and suspended in 0.25 M sucrose, 10 mM Tris, 5 mM EDTA, pH 7.4. The membranes were used in ligand binding studies as reported (Yoo-Warren, H., Willse, A. G., Hancock, N., Hull, J., McCaleb, M., and Livingston, J. Regulation of Rat Glucagon Receptor Expression. Biochem. Biophysical Res. Commun. 1994, 205, 347-353). In brief, 10 ug of membrane protein was incubated in 130 μl of binding buffer that consisted of 20 mM Tris, […], 1 mM EDTA, 1 mg/ml BSA, and 1 mg/ml bacitracin. The membrane suspension was placed in each well of a 96-well filtration plate (glass fiber type C, Millipore). […] Following the addition of test compound, 50 μl of ^125 I-glucagon (9 fmol) (NEN) was added to each well. Control wells contained membranes, 0.5% DMSO (solvent for test compounds), radiolabeled glucagon without and with excess native glucagon (1 μM) to establish nonspecific binding. The plates were incubated for 60 min at room temperature, and then filtered on a Mllipore vacuum apparatus. Following a wash step with ice-cold PBS/0.1% BSA, the filters were punched into test tubes, and the membrane bound radioactivity was determined.
row,Structure (SMILES),IC50 [nM]
1,"CCCc1c(C(C)C)nc(C(C)C)c(C(C)O)c1-c1ccc(F)cc1 (single isomer, unassigned) [Example 103]",1900
2,"CCCCCCc1c(C(C)C)nc(C(C)C)c(C(C)O)c1-c1ccc(F)cc1 (single isomer, unassigned) [Example 110, 2,6-Diisopropyl-3-(1-hydroxyethyl)-4-(4-fluorophenyl)-5-hexylpyridine]",2000
3,"CCCc1c(C(C)C)nc(C(C)C)c(C(C)O)c1-c1ccc(F)cc1 (single isomer, unassigned; (+)) [Example 102, (+)-2,6-Diisopropyl-3-(1-hydroxyethyl)-4-(4-fluorophenyl)-5-propyl-pyridine]",110
4,"CCCc1c(C(C)C)nc(C(C)C)c(C(C)O)c1-c1ccc(F)cc1 (single isomer, unassigned; (+)) [Example 222, (+)-2,6-Diisopropyl-3-(1-hydroxyethyl)-4-(4-fluorophenyl)-5-propyl-pyridine]",110
5,"CCCc1c(C(C)C)nc(C(C)C)c(C(C)O)c1-c1ccc(F)cc1 (single isomer, unassigned; (+)) [Example 223, (+)-2,6-Diisopropyl-3-(1-hydroxyethyl)-4-(4-fluorophenyl)-5-propyl-pyridine]",110
6,"CCCc1c(C(C)C)nc(C(C)C)c(C(C)O)c1-c1ccc(F)cc1 (single isomer, unassigned; (+)) [Example 224, (+)-2,6-Diisopropyl-3-(1-hydroxyethyl)-4-(4-fluorophenyl)-5-propyl-pyridine]",110
